# According to patent US8580321B2, “Method for reducing the effects of chemotherapy using flagellin related polypeptides” (priority 2003, dated 2013):
# Test system: NIH Swiss mice treated with cisplatinum
smiles,measurement,setting,value
"N.N.[Cl][Pt][Cl] [cisplatinum, reference compound]","mice surviving past Day 13, cisplatinum alone",10 mg/kg i.p.,no mice out of 11
same,"behavioral changes, cisplatinum with PBS",FIG. 39D,limited mobility
